This note sets out measurements from patent publication US11939344B2, “Spirocyclic compounds” (ASTRAZENECA AB, priority 2021, dated 2024).

pIC50: −log10 of the molar value. Where two headings read alike, the source gives them in different places.

One assay concerns HCT116 KO-MTAP cells. Nature of the assay: Cell proliferation assay (Alamar Blue), MTAP KO cells. The assay is classed as cell-based. The settings on record: Homo sapiens. As for the experimental part:
(§1) Cell Proliferation Assays:
(§2) A day 0 plate is created in parallel but not dosed, after plating 4 μl of Alamar Blue (Thermo #DAL1100) and incubate for 3 h at 37 C, 5% CO2. Following incubation plates are read using an EnVision plate reader with fluorescence excitation wavelength of 540-570 nm (peak excitation is 570 nm), fluorescence emission at 580-610 nm (peak emission is 585 nm).
(§3) The dosed cell plates were then incubated for 5 days at 37° C. before adding Alamar blue and being read in the Envision following same protocol as for first plate.
For orientation: Resazurin is reduced to fluorescent resorufin, in cell work by metabolically active cells.

Another assay deals with HCT116 WT cells. Put plainly: Cell proliferation assay (Alamar Blue), MTAP WT cells. The assay is classed as cell-based. The settings on record: Homo sapiens, HCT-116, 120 h, 5 days. Here is the method: as §1, §2, §3

For `CC#CCN1CC[C@@]2(C1=O)c1ccc(F)cc1C(=O)N2Cc1cc2nc(N)c(F)cc2[nH]1` [Example 2, (S)-2-((5-Amino-6-fluoro-1H-pyrrolo[3,2-b]pyridin-2-yl)methyl)-1′-(but-2-yn-1-yl)-5-fluorospiro[isoindoline-1,3′-pyrrolidine]-2′,3-dione], the IC50 is 0.24 µM in the assay with HCT116 KO-MTAP cells (HCT-116, 120 h, HCT116 MTAP KO, 5 days, read-out: Cell proliferation IC50 (μM) (MTAP KO)) and 6.1 µM with HCT116 WT cells. Also, the pIC50 with HCT116 KO-MTAP cells (HCT-116, column 6, read-out: Cell proliferation IC50 in MTAP KO cells) was 6.62.
